From patent US20240174992A1, “SPLIT MODIFIED DEHALOGENASE VARIANTS” (Promega Corporation, priority 2022, published 2024)

Biological target: M13-HaloTag[22-297](M2F)-EGFP
Assay: cell-based or functional assay

increase in median JF646 fluorescence with 6 mM calcium chloride, live HeLa imaging: 7 fold
Substance: HaloTag[3-19]-CaM (from UniProt P0DP23 2-149)
